Assay results published in US11261174B2, “Pyrazole O-linked carbamoyl cyclohexyl acids as LPA antagonists” (BRISTOL-MYERS SQUIBB COMPANY, priority 2017, dated 2022).
pIC50: −log10 of the molar value.

Chains of the proteins cited; added tags and fusions are not shown.
UniProt Q92633, whole entry: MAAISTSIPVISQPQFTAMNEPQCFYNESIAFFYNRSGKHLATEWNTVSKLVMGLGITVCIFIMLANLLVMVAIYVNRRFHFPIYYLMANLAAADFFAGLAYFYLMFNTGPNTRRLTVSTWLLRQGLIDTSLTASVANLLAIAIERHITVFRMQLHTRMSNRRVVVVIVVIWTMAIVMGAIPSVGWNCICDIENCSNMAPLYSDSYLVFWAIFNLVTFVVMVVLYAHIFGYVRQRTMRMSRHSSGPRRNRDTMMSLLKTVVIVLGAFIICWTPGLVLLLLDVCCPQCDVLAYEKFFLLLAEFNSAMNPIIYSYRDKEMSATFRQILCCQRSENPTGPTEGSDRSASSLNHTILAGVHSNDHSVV

Biological target: LPA1 (Homo sapiens, UniProt Q92633)
Experiment: LPA1 functional antagonist assay (LPA-induced calcium flux)
Conditions: read-out: hLPA1 IC50; CHO cells overexpressing human LPA1; calcium flux induced by 10 nM LPA

pIC50: 6.43
SMILES: CCCCN(C)C(=O)OCc1c(-c2ccc(O[C@H]3CCC[C@H](C(=O)O)C3)c(C#N)c2)cnn1C (relative stereo)
